For this assay, the target named is CSF1R (Homo sapiens, UniProt P07333). As to the kind of experiment: biochemical. As to conditions: read-out: Percent control.

Chains of the proteins cited; added tags and fusions are not shown. Residues count along the entry.
UniProt P07333, 20-972: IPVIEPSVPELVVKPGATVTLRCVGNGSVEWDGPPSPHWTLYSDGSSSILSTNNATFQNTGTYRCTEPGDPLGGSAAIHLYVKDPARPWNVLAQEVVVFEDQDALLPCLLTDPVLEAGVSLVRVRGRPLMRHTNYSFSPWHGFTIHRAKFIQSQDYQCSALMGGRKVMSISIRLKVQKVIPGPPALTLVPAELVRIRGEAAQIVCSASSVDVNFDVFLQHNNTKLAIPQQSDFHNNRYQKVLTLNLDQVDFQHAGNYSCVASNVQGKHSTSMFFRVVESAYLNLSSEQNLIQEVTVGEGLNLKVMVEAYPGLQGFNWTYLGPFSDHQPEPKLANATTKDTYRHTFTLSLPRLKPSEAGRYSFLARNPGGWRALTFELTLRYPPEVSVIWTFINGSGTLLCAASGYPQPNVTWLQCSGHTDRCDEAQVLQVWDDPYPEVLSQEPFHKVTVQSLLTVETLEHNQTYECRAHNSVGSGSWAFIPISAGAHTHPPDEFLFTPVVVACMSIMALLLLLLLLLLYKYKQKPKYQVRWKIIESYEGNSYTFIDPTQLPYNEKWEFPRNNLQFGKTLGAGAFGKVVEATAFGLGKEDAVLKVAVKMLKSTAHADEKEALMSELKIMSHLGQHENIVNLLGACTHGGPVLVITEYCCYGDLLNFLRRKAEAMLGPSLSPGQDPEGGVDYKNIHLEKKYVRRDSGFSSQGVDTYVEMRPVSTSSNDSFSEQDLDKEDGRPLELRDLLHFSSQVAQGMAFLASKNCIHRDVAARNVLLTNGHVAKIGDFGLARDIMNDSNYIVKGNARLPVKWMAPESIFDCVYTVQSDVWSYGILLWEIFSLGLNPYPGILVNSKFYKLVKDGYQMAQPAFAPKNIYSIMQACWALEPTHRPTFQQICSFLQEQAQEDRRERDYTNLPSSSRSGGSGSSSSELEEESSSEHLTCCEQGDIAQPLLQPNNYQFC

The structures appear in SMILES notation.

Consider `C#Cc1cccc(Nc2ncnc3cc(OCCOC)c(OCCOC)cc23)c1` [Erlotinib], for which the remaining activity at 10 µM came out at 100%.

These data come from article PMC4858680, “A platinum-based hybrid drug design approach to circumvent acquired resistance to molecular targeted tyrosine kinase inhibitors” (Scientific Reports, 2016).
